Source: publication PMC11274511, “Synthesis of Substituted 1,2,4-Triazole-3-Thione Nucleosides Using E. coli Purine Nucleoside Phosphorylase” (Biomolecules, 2024)

System: HSV-1/L2(TK+)
Conditions: Strain HSV-1/L2(TK+)
Protocol: Herpes simplex virus type 1 (HSV-1) strain L2 was obtained from the State’s collection of viruses at FSBI «N. F. Gamaleya National Research Centre for Epidemiology and Microbiology, Russian Ministry of Health, Russia» («D. I. Ivanovsky Institute of Virology» subdivision).
Antiviral activity in vitro was measured by the method of the cytopathic effect (CPE) inhibition assay. In 96-well plastic plates with the 24 h generated cell monolayer, 2-fold serial dilutions of the compounds were prepared. Cells infected with MOI of 0.1 PFU/cell were incubated at 37 °C in 5% CO2 atmosphere. […] Antiviral activity was assessed by determining of IC50 and IC95.
Three controls were used: (1) Toxicity control. Uninfected cells were incubated in the presence of the drug in the same concentration range as in the experiment. (2) Virus control. […] (3) Cell control. Uninfected cell cultures were incubated in the maintenance medium, which contained no drug.

NC(=O)c1ncn([C@@H]2O[C@H](CO)[C@@H](O)[C@H]2O)n1 [Ribavirin, reference compound]
SI (ratio of CC50 to IC50): >4
